High-throughput results as filed in PubChem BioAssay.
The list is not random: actives were taken first. Their share in the collection is about 13%.
JMJD2E inh: inhibitors of human JMJD2E histone demethylase. JMJD2E catalytic domain, FDH-coupled NADH fluorescence (FDH is formaldehyde dehydrogenase). Potency, µM (doses to about 57.1 µM), for the others: top-dose activity change, negative = inhibition, hits mostly inhibitors. 1.6% of 230,000 active; active means well fitted inhibition curve with a large enough effect, not every such curve was filed as active; inconclusive means small, poorly fitted or top-dose-only effect, or another doubt; inactive means no such curve, though single readings can be large or run the other way;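 further: potency means the concentration at half of the fitted maximal effect; 0% = wells with enzyme and -100% = buffer wells without enzyme; nearly all actives have a fitted effect of over 50% in size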
Sfp PPTase inh: qHTS Assay for Inhibitors of Bacillus subtilis Sfp phosphopantetheinyl transferase (PPTase); 4'-phosphopantetheinyl transferase ffp (Bacillus subtilis), Q9F4F7; Biochemical Sfp PPTase activity, qHTS; Potency, µM, inactives show max response, negative = inhibition, hits mostly inhibitors; 310,000 compounds, 3.5% hits; AID 1490, 2009; active means well fitted inhibition curve with a large enough effect; inconclusive means small, poorly fitted or top-dose-only effect, or another doubt; inactive means no such curve, though single readings can be large or run the other way;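 further: the enzyme is Sfp with the accession as filed and its product quenches rhodamine fluorescence; potency means the concentration at half of the fitted maximal effect; 0% = enzyme reaction without inhibitor and -100% = no enzyme wells; top concentration of the series not given in the record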
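Compounds were incubated with enzyme (final 15 nM) for 15 min at room temperature before substrate addition started the reaction. Fluorescence at 525 nm excitation, 598 nm emission was recorded immediately and after 30 minutes.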
miR-21 reporter: miR-21 reporter, rising signal. HeLa miR-21 FLuc reporter, luciferase, 48 h. Potency, µM (highest dose often 38.3 µM), for the others: at the highest dose reporter change, positive = more light. 340,000 tested, under 10 active. AID 2288; active = well fitted rising curve with a large enough effect; inconclusive = small, poorly fitted or top-dose-only effect; inactive = no such curve, though single readings can be large or run the other way;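 further: % of control where 0% means no effect; miR-21 action dims this reporter so a rising signal means less miR-21 action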
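HeLa cells endogenously expressing miR-21, stably carrying CMV-driven firefly luciferase with a downstream miR-21 binding site, 2000 cells/well. Titrations up to approximately 40 uM, 48 hours; luciferase luminescence read.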
G9a inh: G9a (human) methyltransferase inhibition; AID 504332; Q96KQ7; Potency, µM (highest dose often 102 µM), without a hit: at the top dose activity, negative = inhibition, actives largely listed as inhibitors; 8.8% of 350,000 active; G9a H3K9 monomethylation, AlphaScreen, 2 h; further: potency means the concentration at half of the fitted maximal effect; on the % scale 0 is the no-effect control and ±100 the full control effect; nearly all actives have a fitted effect of over 75% in size
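Methyltransferase reactions run at room temperature for 2 h (20 nM enzyme, 500 nM biotin-H3K9 peptide, 20 uM SAM) after a 15 min compound preincubation; product detected by AlphaScreen beads and anti-H3K9me1 antibody.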
ALDH1A1 block: inhibitors of human aldehyde dehydrogenase 1A1. P00352. Purified ALDH1A1, NADH fluorescence, propionaldehyde substrate. Potency, µM (doses to about 75.3 µM), for inactives: at the top dose activity, negative = inhibition, hits mostly inhibitors. 7.3% of 220,000 active. AID 1030; active means well fitted inhibition curve with a large enough effect, not every such curve was filed as active; inconclusive means small, poorly fitted or top-dose-only effect, or another doubt; inactive means no such curve, though single readings can be large or run the other way;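 further: potency means the concentration at half of the fitted maximal effect; plate controls were no enzyme wells and a reference inhibitor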
LMNA splice mod: changes lamin A minigene splicing in HeLa cells; HeLa LMNA splicing GFP/RFP minigene ratio, 48 h; 0.01% of 200,000 active; Potency, µM (titrated, usually from 46.1 µM), for inactives: at the highest dose ratio change, negative = inhibition, most hits filed as inhibitors; active means well fitted inhibition curve with a large enough effect in the signal ratio, with a control signal flat, not every such curve was filed as active; inconclusive means small, poorly fitted or top-dose-only effect, or effect the other way, or a change in a side signal; the % refers to the signal ratio; further: potency means the concentration at half of the fitted maximal effect; on the % scale 0 is the no-effect control and ±100 the full control effect
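S3 HeLa cells stably expressing lamin A-EGFP splicing minigene plus DsRed2, 600 cells/well, 48 h compound exposure at 37C. Laser-scanning cytometry; analysed as GFP (500-530 nm)/RFP (575-640 nm) total intensity ratio; 0.5% DMSO vehicle.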
* marks the source's active call; other numbers are inactive results; ? = inconclusive; · = no result given; [ ] = remark or other dose. Unless noted, the call rests on the fitted dose curve; in most records, active means well fitted curve in the direction sought with a large enough effect; inconclusive means small, poorly fitted or top-dose-only effect, or another doubt; inactive means no such curve, though single readings can be large; an effect the other way counts as inactive or inconclusive.

[1] CCN(CC)CCOC(=O)c1ccc(NC(=O)CCCN2C(=O)S/C(=C/c3ccc(OC)cc3)C2=S)cc1
[2] COc1ccc(/C=C2\SC(=S)N(CCC(=O)Nc3ccc(O)cc3)C2=O)cc1
[3] CCOc1ccc(/C=C2\SC(=S)N(CCC(=O)O)C2=O)cc1
[4] CCOc1ccc(/C=C2\SC(=S)N(CCC(=O)Nc3ccccc3C(=O)O)C2=O)cc1
[5] CCOc1ccc(/C=C2/SC(=S)N(CCC(=O)Nc3ccc(C(=O)O)cc3)C2=O)cc1
[6] COc1ccc(/C=C2\SC(=S)N(CCC(=O)Nc3ccccc3C(=O)O)C2=O)cc1
[7] CN1C(=O)Cc2cc(S(=O)(=O)CCC(=O)Nc3ccc(Cl)cc3)ccc21
[8] CC(C)CN1CCc2nc(Nc3ccc(F)cc3F)ncc2C1
screen / no.	1	2	3	4	5	6	7	8
ALDH1A1 block	·	·	·	·	·	·	·	·
G9a inh	39.8µM*	-1.9%	3.8%	35.5µM*	15.8µM*	70.8µM*	-17.7%[59 µM]	2.8%[12.7 µM]
Sfp PPTase inh	-20.8%	2.6%	8.3%	-3.2%	-0.2%	2.4%	·	·
JMJD2E inh	·	·	5.1%	·	·	·	·	·
miR-21 reporter	?	0.8%	15.7%	-0.7%	-1.6%	-4.0%	-2.0%	-60.3%
LMNA splice mod	·	·	·	·	·	·	·	-9.6%[46 µM]

Molecules listed so far that have a halogen (2):
[7] CN1C(=O)Cc2cc(S(=O)(=O)CCC(=O)Nc3ccc(Cl)cc3)ccc21
[8] CC(C)CN1CCc2nc(Nc3ccc(F)cc3F)ncc2C1
screen / no.	7	8
ALDH1A1 block	·	·
G9a inh	-17.7%[59 µM]	2.8%[12.7 µM]
Sfp PPTase inh	·	·
JMJD2E inh	·	·
miR-21 reporter	-2.0%	-60.3%
LMNA splice mod	·	-9.6%[46 µM]

Later entries.
[9] CC1=CN2C(=N)/C(=C/c3ccc(Sc4ccc(C)cc4)o3)C(=O)N=C2S1
[10] O=C1CCc2cc(S(=O)(=O)NC3CCCCC3)cc3c2N1CC3
[11] Cc1sc(NC(=O)c2ccco2)c(C(c2cccnc2)N2CCN(C)CC2)c1C (stereo not drawn)
[12] CCOC(=O)c1c(C)oc2c1c(C=NCc1ccccn1)c(O)c1ccccc12
[13] CCOC(=O)c1c(C)oc2c1c(C=NCC1CCCO1)c(O)c1ccccc12 (stereo not drawn)
[14] CCOC(=O)c1c(C)oc2c1c(C(c1cccnc1)N1CCOCC1)c(O)c1ccccc12 (stereo not drawn)
[15] CCOC(=O)c1c(C)oc2c1c(C(c1cccnc1)N1CCN(C)CC1)c(O)c1ccccc12 (stereo not drawn)
[16] COc1ccccc1C(=O)NCCC(=O)NCC(c1ccccc1)N(C)C (stereo not drawn)
screen / no.	9	10	11	12	13	14	15	16
ALDH1A1 block	?	·	-4.6%	?	-14.7%	7.08µM*	12.6µM*	·
G9a inh	25.1µM*	50.1µM*	-11.4%	?	-7.1%	3.98µM*	?	43.8%
Sfp PPTase inh	-13.2%	·	-0.5%	17.8µM*	12.1%	?	-26.1%	3.7%
JMJD2E inh	9.1%	·	1.7%	3.98µM*	5.4%	?	-16.2%	·
miR-21 reporter	-21.2%	·	0.0%	0.7%	-1.4%	-59.3%	-57.5%	-6.0%
LMNA splice mod	?	·	-1.7%	?	3.1%	?	?	·

[17] O=C(Cn1cncn1)N1CCN(c2ccc(F)cc2)CC1
[18] Cc1cccc(C)c1N1CCN(C(=O)Cn2cncn2)CC1
[19] C=CCn1c(C)cc(-c2csc(NC)n2)c1C
[20] C=CCNc1nc(-c2ccc(OC)cc2OC)cs1
[21] C=CCn1c(C)cc(-c2csc(NCC)n2)c1C
[22] Cc1cc(-c2csc(NC(=O)c3ccc(=O)[nH]c3)n2)c(C)n1Cc1ccccc1
[23] C=CCn1c(C)cc(-c2csc(NC(=O)C3=COCCO3)n2)c1C
[24] C=CCn1c(C)cc(-c2csc(N)n2)c1C
screen / no.	17	18	19	20	21	22	23	24
ALDH1A1 block	-4.1%	12.6µM*	?	?	?	-12.5%	·	-2.8%
G9a inh	·	17.8µM*	8.91µM*	?	15.8µM*	?	44.7µM*	?
Sfp PPTase inh	21.5%	12.5%	25.1µM*	-11.0%	?	?	·	39.8µM*
JMJD2E inh	-3.4%	-12.4%	-24.1%	-9.4%	-14.2%	?	·	-3.9%
miR-21 reporter	2.7%	-2.9%	-0.5%	-48.1%	-3.6%	0.4%	·	-2.6%
LMNA splice mod	·	·	-0.8%[46 µM]	-0.5%	·	·	·	5.6%

[25] CC(=O)O[C@@H]1[C@@]2(C)O[C@H]2CC[C@]23O[C@H]2[C@H](OC3=O)C2=C(C)C(=O)O[C@@]21O
[26] CCCN1CCC(=O)N([C@H](COc2ccccc2)c2ccccc2)CC1
[27] CCc1ccc(NC(=O)c2cc(C(C)=O)n3ccccc23)cc1
[28] COC(=O)c1nc(N)sc1-c1ccccc1
[29] COC(=O)c1nc(N)sc1-c1ccc(Cl)cc1
[30] O=C(CCNC(=O)c1ccco1)NC(Cc1c[nH]c2ccccc12)C(=O)O (stereo not drawn)
[31] C=C(C)CN(CC)C(=O)CSc1ccc(S(=O)(=O)N2CCN(C)CC2)cn1
[32] CCCCNC(=O)CSc1ccc(S(=O)(=O)N2CCOCC2)cn1
screen / no.	25	26	27	28	29	30	31	32
ALDH1A1 block	28.2µM*	·	·	?	?	·	·	·
G9a inh	-11.4%	39.8µM*	1.3%[59 µM]	-9.2%[59 µM]	44.7µM*	10.8%[12.7 µM]	44.7µM*	-46.0%[59 µM]
Sfp PPTase inh	4.4%	-1.5%	·	22.2%	10.8%	·	·	·
JMJD2E inh	-1.7%	·	·	?	?	·	·	·
miR-21 reporter	-9.1%	-5.2%	-14.8%	1.9%	8.8%	·	·	·
LMNA splice mod	5.2%	·	·	-9.3%	-26.1%[46 µM]	·	·	·

[33] CC(C)N(C(=O)CSc1ccc(S(=O)(=O)N2CCCCC2)cn1)c1ccccc1
[34] CC(C)(C)NC(=O)NC(=O)CSc1ccc(S(=O)(=O)N2CCCCC2)cn1
[35] CN(C)C(=O)CSc1ccc(S(=O)(=O)N2CCCC2)cn1
[36] CCC(CC)NC(=O)CSc1ccc(S(=O)(=O)N2CCCCC2)cn1
[37] CC(C)NC(=O)NC(=O)CSc1ccc(S(=O)(=O)N2CCOCC2)cn1
[38] CC(C)Nc1nnc(SCC(=O)c2c(N)n(Cc3ccccc3)c(=O)n(C)c2=O)s1
[39] Cn1c(N)c(C(=O)CSc2nnc(NC3CCCCC3)s2)c(=O)n(C)c1=O
[40] CC(=O)c1c(C)[nH]c(C(=O)CSc2nnc(NC3CC3)s2)c1C
screen / no.	33	34	35	36	37	38	39	40
ALDH1A1 block	·	·	·	·	·	-1.7%	·	·
G9a inh	-3.4%[2.33 µM]	12.3%[12.7 µM]	56.2µM*	50.1µM*	44.7µM*	-17.3%	50.1µM*	50.1µM*
Sfp PPTase inh	·	·	·	·	·	-1.4%	·	·
JMJD2E inh	·	·	·	·	·	-2.9%	·	·
miR-21 reporter	·	·	·	·	·	0.4%	·	·
LMNA splice mod	·	·	·	·	·	9.7%	·	·

[41] CC(=O)c1c(C)[nH]c(C(=O)CSc2ccc(F)cc2)c1C
[42] COc1cc(OC)c(/C=N/NC(=O)Cn2nc([N+](=O)[O-])cc2C)c(OC)c1
[43] O=C1C(c2ccccc2)SC(=Nc2ccccc2)N1S(=O)(=O)c1ccccc1 (stereo not drawn)
[44] CC1(C)SC(=Nc2ccccc2)N(S(=O)(=O)c2ccccc2)C1=O
screen / no.	41	42	43	44
ALDH1A1 block	·	·	3.16µM*	9.1%
G9a inh	-26.8%	0.6%	?	-11.7%
Sfp PPTase inh	12.5%	-10.7%	12.6µM*	33.9%
JMJD2E inh	5.2%	-24.8%	-28.8%	15.8%
miR-21 reporter	-1.0%	-0.2%	-18.3%	-2.5%
LMNA splice mod	·	·	6.2%	3.7%
